Shown are actives, neighbours in structure and some others; about 1.5% of the full set was active somewhere.
MLLE-PAM2 inh = blocks PAM2 peptide binding to the PABP1 MLLE domain | inhibition, % at 20 µM | GST-MLLE / FITC-PAM2 fluorescence polarization | P11940 | hit rate 0.36% among 360,000; in the data active means inhibition above about 35%, passing the limit was not always enough;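 further: plate controls were DMSO wells with GST-MLLE for no effect and wells lacking GST-MLLE protein for full effect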
PABP polyA inh = blocks human PABP binding to poly(A) RNA; P11940; fluorescence polarization; calls only at 35 µM; hit rate 1% among 290,000; AID 2014;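 further: calls also rest on retests at 20 µM and on dose response follow-up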
UUG fidelity = modulators of yeast start codon fidelity, primary screen, whole organism, S. cerevisiae, single point, plate reader | AID 602363, 2012 | actives 0.13% (n = 350,000) | activity score, % at 18.7 µM | S. cerevisiae UUG-firefly luciferase reporter, luminescence/redox ratio;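 active means replicate mean at a twofold rise or more, about +100% in these data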;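 further: firefly luciferase made from a UUG start codon reports start codon fidelity; reporter light over untreated wells divided by growth signal over untreated wells; some hits fall short of that in this replicate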
eIF4H inh = inhibitors of RNA binding by human eIF4H; Q15056; eIF4H fluorescence polarization binding assay; inhibition, % at 35 µM; hit rate 0.94% among 290,000;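 further: calls also rest on retests at 20 µM and on dose response follow-up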
DSG3 Ab inh = inhibitors of pemphigus antibody binding to human desmoglein-3 | P32926 | binding (percent of control), % at 10 µM | hit rate 0.48% among 310,000 | DSG3-coupled beads, scFv-anti-DSG3-GFP binding, flow cytometry; stronger effect = lower value;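 active means binding more than 3 SD below its plate's average and above zero; inconclusive means below that plate limit but binding exactly zero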
* marks the source's active call; other numbers are inactive results. Unless noted, how the calls were made is not given here.

What do the screens show for `CC(=O)Nc1cccc(NC(=O)CSc2ncc(C(=O)Nc3ccccc3)c(=O)n2C)c1`?
MLLE-PAM2 inh: 42*; DSG3 Ab inh: 93

Results for Oc1ccc(C=Nc2cccc3ncccc23)c(O)c1 ?
MLLE-PAM2 inh: 23; PABP polyA inh: active; UUG fidelity: 6; eIF4H inh: 58

How did CCOc1ccc(C=Nc2cccc3ncccc23)cc1 do in these assays?
MLLE-PAM2 inh: 2; PABP polyA inh: inactive; eIF4H inh: inconclusive; DSG3 Ab inh: 105

Results for Oc1ccc(C=Nc2ccc3ncccc3c2)c(O)c1 ?
PABP polyA inh: active; eIF4H inh: 81*

What do the screens show for `COc1cccc(N=Cc2ccc(O)cc2O)c1`?
MLLE-PAM2 inh: -28; PABP polyA inh: inconclusive; UUG fidelity: 20; eIF4H inh: inconclusive; DSG3 Ab inh: 85*

Results for C[C@@H]1CCCCO[C@@H](CN(C)Cc2ccc(Cl)c(Cl)c2)[C@H](C)CN([C@@H](C)CO)C(=O)c2cc(NS(=O)(=O)c3ccc(Cl)cc3)ccc2O1 ?
UUG fidelity: 39

How did Cc1cccc(-c2ccc([C@@H]3[C@H](CO)N4CCCCN(S(=O)(=O)c5cn(C)cn5)C[C@@H]34)cc2)c1 do in these assays?
UUG fidelity: -10

How did O=C(C[C@H]1C[C@H]2c3cc(NC(=O)c4cccnc4)ccc3O[C@H]2[C@H](CO)O1)NCc1cccc(F)c1 do in these assays?
UUG fidelity: -18

Results for Cc1cccc(S(=O)(=O)N2C[C@@H]3[C@H](c4ccccc42)[C@H](CO)N3C(=O)CC2CC2)c1 ?
UUG fidelity: 5

What do the screens show for `COCc1cc(C)n(CC(=O)Nc2ccc(Cl)cc2Cl)c(=O)c1C#N`?
MLLE-PAM2 inh: -1; PABP polyA inh: inactive; UUG fidelity: -3; eIF4H inh: 5; DSG3 Ab inh: -3.1*

Of the compounds above, three contain a carbonyl joined to an NH by a bond outside any ring.
What do the screens show for `CC(=O)Nc1cccc(NC(=O)CSc2ncc(C(=O)Nc3ccccc3)c(=O)n2C)c1`?
MLLE-PAM2 inh: 42*; DSG3 Ab inh: 93

How did O=C(C[C@H]1C[C@H]2c3cc(NC(=O)c4cccnc4)ccc3O[C@H]2[C@H](CO)O1)NCc1cccc(F)c1 do in these assays?
UUG fidelity: -18

What do the screens show for `COCc1cc(C)n(CC(=O)Nc2ccc(Cl)cc2Cl)c(=O)c1C#N`?
MLLE-PAM2 inh: -1; PABP polyA inh: inactive; UUG fidelity: -3; eIF4H inh: 5; DSG3 Ab inh: -3.1*

The listing continues.
What do the screens show for `C[C@H](CO)N1C[C@H](C)[C@@H](CN(C)C(=O)Nc2ccc3c(c2)OCO3)OCCCC[C@H](C)Oc2ccc(NC(=O)CCC(F)(F)F)cc2C1=O`?
UUG fidelity: 12

What do the screens show for `O=C(COc1ncnc2ccc(Br)cc12)N1CCOCC1`?
MLLE-PAM2 inh: -10; PABP polyA inh: active; UUG fidelity: -23; eIF4H inh: 1.0*

Results for C[C@H]1CN([C@@H](C)CO)C(=O)c2cc(NC(=O)Nc3ccc(C(F)(F)F)cc3)ccc2O[C@H]1CN(C)Cc1ccccc1 ?
UUG fidelity: 6

Results for CC(C)(C)NC(=O)CN(C(=O)CCN1CCCc2ccccc21)C(C)(C)C ?
MLLE-PAM2 inh: 54*; PABP polyA inh: inactive; UUG fidelity: 6; eIF4H inh: -16; DSG3 Ab inh: 130

Results for CC(C)(C)CN1CCNC(=O)C1CC(=O)NCCN1CCCc2ccccc21 (configuration not stated) ?
MLLE-PAM2 inh: 18; PABP polyA inh: inactive; eIF4H inh: 58*; DSG3 Ab inh: 103

What do the screens show for `O=C(O)c1cc(O)c2c(c1)C(=O)c1cc(O)cc(O)c1C2=O`?
MLLE-PAM2 inh: -9; PABP polyA inh: active; UUG fidelity: 4; eIF4H inh: 90*; DSG3 Ab inh: 103

What do the screens show for `Cc1ccc(S(=O)(=O)Cc2ccc([N+](=O)[O-])cc2)cc1`?
MLLE-PAM2 inh: 8; PABP polyA inh: active; UUG fidelity: -19; eIF4H inh: 98*; DSG3 Ab inh: 104

What do the screens show for `CCCc1nc2c(C)cc(Br)cn2c1Cc1ccsc1`?
MLLE-PAM2 inh: 43*; UUG fidelity: 1

What do the screens show for `ClC(Cl)(c1nnnn1-c1ccccc1)c1nnnn1-c1ccccc1`?
MLLE-PAM2 inh: -96; PABP polyA inh: inactive; UUG fidelity: -40; eIF4H inh: -4; DSG3 Ab inh: 77*

What do the screens show for `c1ccc(-c2nnnn2-c2ccccc2)cc1`?
MLLE-PAM2 inh: 13; PABP polyA inh: inactive; UUG fidelity: -12; eIF4H inh: 3; DSG3 Ab inh: 108

Results for C[C@@H]1CCCCO[C@H](CN(C)S(=O)(=O)c2cccs2)[C@H](C)CN([C@H](C)CO)C(=O)c2cc(NS(=O)(=O)c3ccccc3)ccc2O1 ?
UUG fidelity: -1

What do the screens show for `COc1ccc2c(c1)c(N=NC(N)=S)c(O)n2CC(=O)c1ccccc1`?
MLLE-PAM2 inh: 8; PABP polyA inh: inactive; UUG fidelity: -14; eIF4H inh: 2; DSG3 Ab inh: 59*

Results for Cc1ccc(NC(=O)Cn2c(O)c(N=NC(N)=S)c3ccccc32)cc1 ?
MLLE-PAM2 inh: 0; PABP polyA inh: inactive; UUG fidelity: -23; eIF4H inh: -4; DSG3 Ab inh: 90

What do the screens show for `O=C(NCc1ccccc1)[C@]1(Cc2ccccc2)N=C(c2ccc(OCCCO)cc2)O[C@@H]1c1ccccc1`?
UUG fidelity: -4

What do the screens show for `CC(C)N(C(=O)Nc1ccc2nsnc2c1)C(C)C`?
PABP polyA inh: active; eIF4H inh: 101*

What do the screens show for `Cc1noc(C)c1NC(=O)N(C)C[C@H]1Oc2ccc(NC(=O)Cc3ccccc3)cc2CC(=O)N([C@@H](C)CO)C[C@@H]1C`?
UUG fidelity: 19

How did COc1cccc(C#Cc2ccc3c(c2)O[C@@H](CN(C)C(=O)c2ccccn2)[C@H](C)CN([C@H](C)CO)S3(=O)=O)c1 do in these assays?
UUG fidelity: 0

Results for O=C1C=CC(=O)N1c1ccc(OC(F)F)cc1 ?
MLLE-PAM2 inh: 30; PABP polyA inh: inactive; eIF4H inh: 4; DSG3 Ab inh: 62*

How did O=c1[nH]cc(COCC(F)CCl)c(=O)[nH]1 (configuration not stated) do in these assays?
MLLE-PAM2 inh: 2; PABP polyA inh: inactive; eIF4H inh: -10; DSG3 Ab inh: 72*

Results for O=C(Cc1ccc(Cl)cc1Cl)NC1CCCCCC1 ?
MLLE-PAM2 inh: 3; PABP polyA inh: inactive; UUG fidelity: 3; eIF4H inh: -7; DSG3 Ab inh: 24*

What do the screens show for `COc1cc2c(cc1OC)C(c1ccccc1O)N(C1CC(=O)N(c3ccccc3)C1=O)CC2` (configuration not stated)?
MLLE-PAM2 inh: 40*; PABP polyA inh: inactive; UUG fidelity: -10; eIF4H inh: 1; DSG3 Ab inh: 101

How did COc1cc2c(cc1OC)C(c1ccccc1)N(C(=O)CCl)CC2 (configuration not stated) do in these assays?
MLLE-PAM2 inh: 7; PABP polyA inh: inactive; UUG fidelity: 14; eIF4H inh: -8; DSG3 Ab inh: 98

Results for CC(C)C1N=C2c3ccccc3N=C(SCc3cc(=O)n4cc(Cl)ccc4n3)N2C1=O (configuration not stated) ?
MLLE-PAM2 inh: -8; PABP polyA inh: inactive; UUG fidelity: 0; eIF4H inh: -14; DSG3 Ab inh: 78*

What do the screens show for `CC(C)C1N=C2c3ccccc3N=C(SCC(=O)NCCc3ccc(S(N)(=O)=O)cc3)N2C1=O` (configuration not stated)?
MLLE-PAM2 inh: -62; PABP polyA inh: inactive; UUG fidelity: -25; eIF4H inh: 10; DSG3 Ab inh: 103

What do the screens show for `CCCC(=O)Nc1ccc2c(c1)C(=O)N(C)C[C@@H](OC)[C@H](C)CN(C(=O)CN(C)C)[C@H](C)CO2`?
UUG fidelity: 4
